The target in this test is p21-binding domain (PDB) of the Rac effector protein p21 activated kinase (PAK), on beads (UniProt Q13153). Briefly: pull-down; PAK-PDB on beads (5 μg) with 5 μg GTPγS-loaded Rac1 in 500 μl pulldown buffer (25 mM Tris-HCl pH 8.0, 40 mM NaCl, 30 mM MgCl2, 1 mM DTT, 1% Igepal CA-630), 1 hour at 4°C; three washes; eluted Rac1 detected by western blot with anti-Rac1; intensities normalised to loading controls. In general terms: A western blot detects proteins with antibodies after separation by electrophoresis.

Regarding “Rac1(G30E) (residues 1-177), GTPγS-loaded (from UniProt P63000 1-177) (domain or fragment; other documents disagree on this pair)”, the percent less GTP activated (pulled down by PAK-PDB) than wild type Rac1 stood at 50%.
